# According to patent US20240261274A1, “TREATMENT OF MYC-DRIVEN CANCERS WITH GSPT1 DEGRADERS” (MONTE ROSA THERAPEUTICS, INC., priority 2021, published 2024):
# Amino acid sequences for entries named in this document (tags omitted).
# UniProt P15170, whole entry: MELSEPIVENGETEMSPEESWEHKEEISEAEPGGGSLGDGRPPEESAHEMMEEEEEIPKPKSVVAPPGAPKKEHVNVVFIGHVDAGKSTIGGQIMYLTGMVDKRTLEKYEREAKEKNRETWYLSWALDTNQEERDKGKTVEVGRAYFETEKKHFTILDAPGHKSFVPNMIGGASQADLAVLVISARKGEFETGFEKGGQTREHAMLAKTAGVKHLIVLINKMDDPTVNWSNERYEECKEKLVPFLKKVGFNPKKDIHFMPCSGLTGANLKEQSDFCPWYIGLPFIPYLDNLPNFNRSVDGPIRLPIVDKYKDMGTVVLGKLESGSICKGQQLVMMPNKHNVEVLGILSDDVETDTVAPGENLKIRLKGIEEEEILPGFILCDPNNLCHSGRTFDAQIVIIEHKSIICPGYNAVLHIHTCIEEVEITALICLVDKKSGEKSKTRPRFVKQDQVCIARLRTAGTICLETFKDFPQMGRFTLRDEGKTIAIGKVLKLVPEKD
# UniProt Q96SW2, whole entry: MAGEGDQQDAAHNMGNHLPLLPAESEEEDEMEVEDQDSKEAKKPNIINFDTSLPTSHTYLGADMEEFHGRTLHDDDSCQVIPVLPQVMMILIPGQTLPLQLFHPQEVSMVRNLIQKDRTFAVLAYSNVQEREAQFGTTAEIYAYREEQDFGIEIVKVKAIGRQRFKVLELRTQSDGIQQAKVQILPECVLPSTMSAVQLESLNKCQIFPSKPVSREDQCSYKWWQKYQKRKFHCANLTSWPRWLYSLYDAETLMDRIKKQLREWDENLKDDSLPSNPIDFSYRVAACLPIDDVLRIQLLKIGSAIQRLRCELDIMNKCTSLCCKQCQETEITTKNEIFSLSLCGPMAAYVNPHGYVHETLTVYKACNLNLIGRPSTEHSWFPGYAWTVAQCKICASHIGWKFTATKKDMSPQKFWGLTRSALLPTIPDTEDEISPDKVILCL
# UniProt Q16531, whole entry partner: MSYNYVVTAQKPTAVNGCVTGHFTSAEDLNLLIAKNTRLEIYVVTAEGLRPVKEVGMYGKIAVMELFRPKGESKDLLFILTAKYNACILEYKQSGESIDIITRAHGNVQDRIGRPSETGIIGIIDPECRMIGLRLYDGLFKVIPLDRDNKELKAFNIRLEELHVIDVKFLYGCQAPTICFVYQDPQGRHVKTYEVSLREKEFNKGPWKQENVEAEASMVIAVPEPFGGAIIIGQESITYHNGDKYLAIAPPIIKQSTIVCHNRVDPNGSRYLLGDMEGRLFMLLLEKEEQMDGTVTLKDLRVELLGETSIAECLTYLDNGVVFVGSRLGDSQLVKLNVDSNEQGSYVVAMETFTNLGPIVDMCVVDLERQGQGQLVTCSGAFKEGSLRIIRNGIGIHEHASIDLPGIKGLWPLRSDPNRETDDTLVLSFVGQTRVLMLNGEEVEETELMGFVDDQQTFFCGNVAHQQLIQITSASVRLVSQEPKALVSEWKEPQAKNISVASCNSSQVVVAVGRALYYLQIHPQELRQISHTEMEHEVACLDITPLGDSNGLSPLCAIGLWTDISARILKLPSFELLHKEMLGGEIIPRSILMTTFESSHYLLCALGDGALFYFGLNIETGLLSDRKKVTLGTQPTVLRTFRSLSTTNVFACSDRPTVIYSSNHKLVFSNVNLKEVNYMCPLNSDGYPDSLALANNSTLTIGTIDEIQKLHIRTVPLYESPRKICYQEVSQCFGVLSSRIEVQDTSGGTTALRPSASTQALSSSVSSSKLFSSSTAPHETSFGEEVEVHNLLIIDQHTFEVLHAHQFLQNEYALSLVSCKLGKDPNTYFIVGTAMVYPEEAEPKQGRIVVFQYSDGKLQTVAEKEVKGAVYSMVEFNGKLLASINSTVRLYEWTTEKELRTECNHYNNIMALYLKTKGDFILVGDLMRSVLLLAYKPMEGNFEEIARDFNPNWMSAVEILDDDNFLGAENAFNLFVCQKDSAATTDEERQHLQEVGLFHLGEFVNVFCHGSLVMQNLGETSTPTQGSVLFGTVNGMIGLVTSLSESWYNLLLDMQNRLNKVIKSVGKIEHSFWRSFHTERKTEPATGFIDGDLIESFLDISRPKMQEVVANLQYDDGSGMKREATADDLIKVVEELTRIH
# Biological target: GSPT1 (Homo sapiens, UniProt P15170+Q96SW2)
# Assay: GSPT1 degradation immunofluorescence assay in CAL-51 cells
# Settings: read-out: Activity for GSPT1 degradation, Code (DC50), 6 hours, Table 4
row,DC50,Structure (SMILES)
1,> 300 nM,CN1CCC(COc2cc(Cl)cc(NC(=O)NCc3ccc4c(c3)C(=O)N(C3CCC(=O)NC3=O)C4)c2)C1 (stereo not drawn)
2,> 300 nM,O=C1CCC(N2Cc3ccc(CNC(=O)Nc4cc(F)cc(OC(F)(F)F)c4)cc3C2=O)C(=O)N1 (stereo not drawn)
3,> 300 nM,O=C1CCC(N2Cc3ccc(CNC(=O)Nc4cn[nH]c4)cc3C2=O)C(=O)N1 (stereo not drawn)
4,> 300 nM,O=C1CCC(N2Cc3ccc(CNC(=O)Nc4cc(OC(F)(F)F)ccn4)cc3C2=O)C(=O)N1 (stereo not drawn)
5,> 300 nM,O=C1CCC(N2Cc3ccc(CNC(=O)Nc4cc[nH]n4)cc3C2=O)C(=O)N1 (stereo not drawn)
6,> 300 nM,O=C1CCC(N2Cc3ccc(CNC(=O)Nc4cc[nH]c4)cc3C2=O)C(=O)N1 (stereo not drawn)
7,> 300 nM,CN1CCC(Oc2cc(Cl)cc(NC(=O)NCc3ccc4c(c3)C(=O)N(C3CCC(=O)NC3=O)C4)c2)C1 (stereo not drawn)
8,> 300 nM,O=C1CCC(N2Cc3ccc(CNC(=O)Nc4cccc(-c5ncc[nH]5)c4)cc3C2=O)C(=O)N1 (stereo not drawn)
9,< 100 nM,CC(C)(C)c1ccc(NC(=O)NCc2ccc3c(c2)C(=O)N(C2CCC(=O)NC2=O)C3)cn1 (stereo not drawn)
